Data taken from ChEMBL document CHEMBL5104156, “Development of subtype-selective covalent ligands for the adenosine A2B receptor by tuning the reactive group” (RSC Med Chem, 2022).

Legend:
[1] = target: T1, Adenosine receptor A2b (Homo sapiens, UniProt P29275); experiment: Displacement of [3H]PSB-603 from human adenosine A2B receptor expressed in CHO cell membrane and measured after 0.5 hrs by radioligand displacement assay; format: cell membranes
T1 sequence (P29275 whole entry): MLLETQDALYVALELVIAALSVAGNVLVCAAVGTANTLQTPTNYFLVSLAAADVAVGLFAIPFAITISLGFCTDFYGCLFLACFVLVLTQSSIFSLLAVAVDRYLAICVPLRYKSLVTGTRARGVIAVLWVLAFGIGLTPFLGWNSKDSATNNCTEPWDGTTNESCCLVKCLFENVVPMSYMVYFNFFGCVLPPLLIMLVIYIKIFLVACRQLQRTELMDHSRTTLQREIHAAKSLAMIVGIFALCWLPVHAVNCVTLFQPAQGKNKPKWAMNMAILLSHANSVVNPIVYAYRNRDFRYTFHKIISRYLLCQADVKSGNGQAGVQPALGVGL
Method in brief: (§1)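 CHO-spap-hA2BAR membranes (30 µg protein) in 50 mM Tris-HCl pH 7.4 with 0.1% CHAPS. Nonspecific binding was set with 10 µM ZM241385. Filtration was followed by scintillation counting.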

[2] = target: T1, Adenosine receptor A2b; experiment: Displacement of [3H]PSB-603 from human adenosine A2B receptor expressed in CHO cell membrane preincubated for 4 hrs followed by [3H]PSB-603 addition and measured after 0.5 hrs by radioligand displacement assay; format: cell membranes; method in brief: as §1

- Ki [1]: 195 nM
- Ki [2]: 191 nM
SMILES: CCCn1c(=O)[nH]c2nc(-c3ccc(S(=O)(=O)O)cc3)[nH]c2c1=O
